For this assay, the target named is RSV A2 바이러스의 F 단백질 (Respiratory Syncytial Virus (RSV), strain A2) (UniProt P03420). Briefly: cell-based or functional assay.

Chains of the proteins cited; added tags and fusions are not shown. Residues count along the entry.
UniProt P03420, 26-574: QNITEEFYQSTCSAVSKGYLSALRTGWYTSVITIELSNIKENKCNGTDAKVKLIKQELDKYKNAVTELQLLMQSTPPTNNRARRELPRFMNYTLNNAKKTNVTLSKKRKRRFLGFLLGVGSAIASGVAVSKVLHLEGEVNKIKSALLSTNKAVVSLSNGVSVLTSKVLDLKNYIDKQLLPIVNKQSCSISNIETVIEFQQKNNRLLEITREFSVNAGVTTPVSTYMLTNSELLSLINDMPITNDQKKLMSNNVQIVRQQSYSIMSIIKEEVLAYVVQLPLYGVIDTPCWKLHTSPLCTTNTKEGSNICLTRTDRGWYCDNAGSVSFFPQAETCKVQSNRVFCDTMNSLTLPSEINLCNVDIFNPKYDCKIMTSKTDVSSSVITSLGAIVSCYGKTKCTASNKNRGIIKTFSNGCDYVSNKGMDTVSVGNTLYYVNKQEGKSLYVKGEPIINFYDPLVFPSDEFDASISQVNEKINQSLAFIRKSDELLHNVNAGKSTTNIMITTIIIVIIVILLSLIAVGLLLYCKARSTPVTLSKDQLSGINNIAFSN

AM14 (antibody) had an IC50, RSV A2 neutralisation on HEp2 cells (standard TCID50 culture assay) of 2.09 ng/㎖.

Source of the values: patent KR20120084755A.
